Here are results for one molecule from ChEMBL document CHEMBL1649565, “Besifloxacin, a novel fluoroquinolone, has broad-spectrum in vitro activity against aerobic and anaerobic bacteria” (Antimicrob Agents Chemother, 2009).

This assay relates to Streptococcus sp. The assay can be described thus: Antibacterial activity against Lancefield Streptococcus sp. group F assessed as percent susceptible isolates by CLSI M100-S18 method. It is filed as functional.

With `CC[C@H]1OC(=O)[C@H](C)[C@@H](O[C@H]2C[C@@](C)(OC)[C@@H](O)[C@H](C)O2)[C@H](C)[C@@H](O[C@@H]2O[C@H](C)C[C@H](N(C)C)[C@H]2O)[C@](C)(O)C[C@@H](C)CN(C)[C@H](C)[C@@H](O)[C@]1(C)O` [AZITHROMYCIN], the Activity is listed as 98%.
